pIC50: −log10 of the molar value.
Molecular target: Proto-oncogene tyrosine-protein kinase Src (Mus musculus, UniProt P05480)
Assay: Inhibition of mouse c-Src tyrosine kinase

By UniProt entry, the sequences of proteins in these tests, tags left out. Where a name states a change or a piece, a line headed by the entry shows the natural chain unless it says otherwise.
UniProt P05480: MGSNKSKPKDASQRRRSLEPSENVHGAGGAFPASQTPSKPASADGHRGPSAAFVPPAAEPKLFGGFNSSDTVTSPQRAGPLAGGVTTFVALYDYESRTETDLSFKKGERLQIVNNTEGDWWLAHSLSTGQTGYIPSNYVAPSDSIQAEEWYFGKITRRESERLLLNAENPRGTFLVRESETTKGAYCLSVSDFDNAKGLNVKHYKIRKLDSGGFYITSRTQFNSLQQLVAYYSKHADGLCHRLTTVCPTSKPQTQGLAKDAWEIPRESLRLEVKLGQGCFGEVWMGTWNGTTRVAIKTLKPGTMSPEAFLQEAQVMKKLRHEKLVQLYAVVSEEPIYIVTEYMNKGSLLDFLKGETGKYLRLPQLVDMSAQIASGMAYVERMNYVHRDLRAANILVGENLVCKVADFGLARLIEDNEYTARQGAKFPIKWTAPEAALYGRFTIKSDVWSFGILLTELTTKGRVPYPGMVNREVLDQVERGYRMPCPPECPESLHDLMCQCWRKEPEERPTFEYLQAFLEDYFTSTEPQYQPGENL

pIC50: 8.05
Compound: CCN(CC)CCOc1ccc(Nc2ncc3cc(-c4c(Cl)cccc4Cl)c(=O)n(C)c3n2)cc1 [PD-0166285]
